4 compounds from patent US7727530B2, “Anti-cancer composition comprising proline or its derivatives and an anti-tumour antibody” (priority 2004, dated 2010) can be followed below.

“And” between values parts separate entries of the source, which are not always exact repeats. Equal values may be shown once.

Common to all, as to assay type: cell-based
Assay [1] has as its system Colo205 colon cancer cells. Description: MTT proliferation (chemosensitivity) assay, Colo205.
The test system of the next assay is SW620 colon cancer cells. Description: MTT proliferation (chemosensitivity) assay, SW620. As for the experimental part: (§1) MTT proliferation tests were performed as described. The proliferation control of both the untreated cells and the CHP pre-treated cells is set to 100%.
(§2) Unless otherwise indicated, all cell lines were obtained from the American Type Culture Collection (ATCC, Rockville, Md.) and grown to confluent monolayers in RPMI-1640 bicarbonate medium (Seromed, Berlin, Germany) in a humidified incubator (5% CO2, 37° C.). Cells were checked for mycoplasma contamination. The medium was supplemented with 10% heat-inactivated foetal bovine serum (Seromed) and 4 mM glutamine. The cells were subcultured by trypsination (0.03% trypsin containing 0.02% EDTA, three times a week). Cells numbers were counted using a TOA Sysmex microcellcounter (TOA, Tokyo, Japan).
(§3) 10^4 cells/well were distributed into 96-well microtitre plates (100 μl medium) and the compounds to be tested were added in another 100 μl volume. All compounds were diluted in triplicate or in most cases in quadruplicate. Plates were incubated under tissue culture conditions for 4 days, except those for tests investigating the relationship between application time and response, and cell viability was measured using a modified MTT assay (formazane dye formation from tetrazolium salts by mitochondrial reduction; EZ4U, Biomedica, Vienna, Austria), assessing mitochondrial activity and thereby cell viability/cell numbers. In brief, the supplied substrate was diluted in an activator solution and 20 μl of the mixture added per well for 2 hrs. The optical density was measured at 450 nm using an empty well as reference in a microplate reader (Eurogenetics, Brussels, Belgium). For each cell line, 8 wells were used to measure the MTT signal of the medium control without test substances and the proliferation in the test wells was calculated in relation to these control values set to 100%. Test results were recorded between 0.3 and 1.5 optical densities for slowly and rapidly proliferating cells respectively.
(§4) SW620chp4 and A431chp4 cells represent cells pre-treated with 400 μg/ml CHP for 5 days under tissue culture conditions.

For assay [2], the system named is A431 epidermoid carcinoma. As to the kind of experiment: MTT proliferation (chemosensitivity) assay, A431. As for the experimental part: as §1, §2, §3, §4
[3] abbreviates: Colo 205 cells pre-incubated with the derivative 50 μg/ml for 5 days, then Cetuximab, Cetuximab concentrations not given.

As to `CCOC(=O)[C@@H]1CC(O)CN1C` (stereo partly shown) [A1.21, 4-hydroxy-1-methyl-proline ethyl ester], the “proliferation activity (% of control)” value in assay [1] (setting [3]) is 101.4 ± 2.1% and 99.4 ± 2.1% and 100.9 ± 1.9% and 99.4 ± 3.0% and 92.7 ± 2.5%.

In the case of `CCOC(=O)[C@@H]1CC(OC(=O)Nc2ccccc2)CN1C` (stereo partly shown) [A1.23, 1-methyl-4-phenylamino-carbonyloxy-proline ethyl ester], the “proliferation activity (% of control)” value in assay [1] (setting [3]) came to 93.9 ± 2.9%.

Consider `CC(C)COC(=O)[C@@H]1CC(OC(=O)Nc2ccccc2)CN1C` (stereo partly shown) [A2.23, 1-methyl-4-phenylamino-carbonyloxy-proline-isobutyl ester], for which, in assay [1] (setting [3]), the “proliferation activity (% of control)” value came out at 101.6 ± 5.9%.

In the case of “Cetuximab: commercially available monoclonal antibody directed to a tumour antigen, used as supplied for clinical use”, the “proliferation activity (% of control)” value came out at 93.9 ± 2.1 % in the assay with SW620 colon cancer cells (SW620chp4 (cells pre-treated with 400 μg/ml CHP for 5 days), Cetuximab 1.6 μg/ml); 92.7 ± 0.6 % with SW620 colon cancer cells (SW620chp4 (cells pre-treated with 400 μg/ml CHP for 5 days), Cetuximab 3.2 μg/ml); 97.8 ± 4.1 % with SW620 colon cancer cells (SW620chp4 (cells pre-treated with 400 μg/ml CHP for 5 days), Cetuximab 6.3 μg/ml); 98.6 ± 2.6% in the assay on SW620 colon cancer cells (SW620chp4 (cells pre-treated with 400 μg/ml CHP for 5 days), Cetuximab 12.5 μg/ml); 99.2 ± 2.9% in the assay on SW620 colon cancer cells (SW620chp4 (cells pre-treated with 400 μg/ml CHP for 5 days), Cetuximab 25 μg/ml); 98.5 ± 3.2% in the assay on SW620 colon cancer cells (SW620chp4 (cells pre-treated with 400 μg/ml CHP for 5 days), Cetuximab 50 μg/ml). Besides, the “proliferation activity (% of control)” value in the assay with SW620 colon cancer cells (SW620con (cells not pre-treated), Cetuximab 1.6 μg/ml) came to 101.5 ± 1.5%; in the assay with SW620 colon cancer cells (SW620con (cells not pre-treated), Cetuximab 3.2 μg/ml) it was 101.8 ± 2.1%; with SW620 colon cancer cells (SW620con (cells not pre-treated), Cetuximab 6.3 μg/ml), 102.7 ± 1.8%; in the assay on SW620 colon cancer cells (SW620con (cells not pre-treated), Cetuximab 12.5 μg/ml), 100.2 ± 4.0%; in the assay on SW620 colon cancer cells (SW620con (cells not pre-treated), Cetuximab 25 μg/ml), 101.7 ± 2.7%; in the assay with SW620 colon cancer cells (SW620con (cells not pre-treated), Cetuximab 50 μg/ml), 100.5 ± 4.3%. The “proliferation activity (% of control)” value in assay [1] (C205con (Cetuximab alone), Cetuximab 0.15 μg/ml) came to 94.8 ± 5.9%; in assay [1] (C205con (Cetuximab alone), Cetuximab 0.3 μg/ml), 104.2 ± 6.8%; in assay [1] (C205con (Cetuximab alone), Cetuximab 0.6 μg/ml), 98.0 ± 3.5%; in assay [1] (C205con (Cetuximab alone), Cetuximab 1.25 μg/ml), 101.6 ± 7.1%; in assay [1] (C205con (Cetuximab alone), Cetuximab 2.5 μg/ml), 101.7 ± 4.3%; in assay [1] (C205con (Cetuximab alone), Cetuximab 5 μg/ml) it was 100.7 ± 7.9%. Also, the “proliferation activity (% of control)” value in assay [1] (C205con (Cetuximab alone), Cetuximab 10 μg/ml) is 99.1 ± 3.2%; in assay [1] (C205con (Cetuximab alone), Cetuximab 20 μg/ml), 103.1 ± 3.0%; in assay [1] (C205con (Cetuximab alone), Cetuximab 40 μg/ml), 100.1 ± 4.6%; in assay [1] (C205con (cells not pre-incubated), Cetuximab, concentrations not given) it was 97.9 ± 11% and 95.9 ± 6.3% and 96.5 ± 9.9% and 94.9 ± 4.6% and 95.4 ± 8.2% and 93.1 ± 2.5%; in assay [2] (A431chp4 (cells pre-treated with 400 μg/ml CHP for 5 days), Cetuximab 1.6 μg/ml), 92.6 ± 9.1%; in assay [2] (A431chp4 (cells pre-treated with 400 μg/ml CHP for 5 days), Cetuximab 3.2 μg/ml), 101.9 ± 3.4 %. The “proliferation activity (% of control)” value in assay [2] (A431chp4 (cells pre-treated with 400 μg/ml CHP for 5 days), Cetuximab 6.3 μg/ml) is on record as 99.4 ± 1.5 %; in assay [2] (A431chp4 (cells pre-treated with 400 μg/ml CHP for 5 days), Cetuximab 12.5 μg/ml) it was 98.7 ± 3.8 %; in assay [2] (A431chp4 (cells pre-treated with 400 μg/ml CHP for 5 days), Cetuximab 25 μg/ml) it was 101.1 ± 2.8 %; in assay [2] (A431chp4 (cells pre-treated with 400 μg/ml CHP for 5 days), Cetuximab 50 μg/ml), 98.4 ± 4.6 %; in assay [2] (A431con (cells not pre-treated), Cetuximab 1.6 μg/ml) it was 89.5 ± 2.6%; in assay [2] (A431con (cells not pre-treated), Cetuximab 3.2 μg/ml), 93.3 ± 1.9%. Further, the “proliferation activity (% of control)” value in assay [2] (A431con (cells not pre-treated), Cetuximab 6.3 μg/ml) came to 91.3 ± 4.7%; in assay [2] (A431con (cells not pre-treated), Cetuximab 12.5 μg/ml), 89.3 ± 1.6%; in assay [2] (A431con (cells not pre-treated), Cetuximab 25 μg/ml), 94.7 ± 1.9%; in assay [2] (A431con (cells not pre-treated), Cetuximab 50 μg/ml), 92.3 ± 2.4%.
